Values of other authors as cited in patent publication US20240050571A1, “CARBORANE HYDROXAMIC ACID MATRIX METALLOPROTEINASE INHIBITORS AND AGENTS FOR BORON NEUTRON CAPTURE THERAPY” (LOYOLA UNIVERSITY OF CHICAGO, priority 2018, published 2024).

Tests used:
[1] = rats; cited from earlier work
[2] = rabbits; cited from earlier work

Sodium azide
LC50 Inhalation [1]: 37 mg/m^3 | LD50 Dermal [2]: 20 mg/kg
